The values that follow are results of earlier work, collected in US20080102121A1, “COMPOSITIONS COMPRISING NANOPARTICULATE MELOXICAM AND CONTROLLED RELEASE HYDROCODONE” (Elan Pharma International Limited, priority 1998, published 2008).

One series concerns COX-2/COX-1. The following applies: cited from earlier work.
The conditions of series [1]: cited from earlier work.

As for “4-hydroxy-2-methyl-N-(5-methyl-2-thiazolyl)-2-H-1,2-benzothiazine-3-carboxamide 1,1-dioxide [Meloxicam]”, in the series with COX-2/COX-1, the COX-2/COX-1 inhibition ratio was 0.09. For the same substance, the solubility in methanol entry in series [1] (methanol) is listed as “very slightly soluble”. For the same substance, in series [1] (water), the solubility in water entry is listed as “practically insoluble”.
